The results in this text go back to patent US8148386B2, “Agent for the prevention and treatment of prostatic hyperplasia comprising pyrazolopyrimidinone compound” (priority 2006, dated 2012).

A short description of this data set: Interrupt rate of administration due to side effects of PDE-5 inhibitors after clinical trials on impotence.

With `CCCOc1ccc(S(=O)(=O)NCCC2CCCN2C)cc1-c1nc2c(CCC)nn(C)c2c(=O)[nH]1` (stereo not shown) [Compound of formula 1, 5-[2-propyloxy-5-(1-methyl-2-pyrrolidinylethylamidosulfonyl)phenyl]-1-methyl-propyl-1,6-dihydro-7H-pyrazolo(4,3-d)pyrimidin-7-one], the “side effects such as testicle toxicity or myalgia” value is reported as “not manifested”.
